## Antibody variant affinities, Ab-14 light chain, assay B

Binding partner: SARS-CoV-2 spike HR2 peptide, sequence PDVDLGDISGINAS.

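The starting antibody came from a phage panning campaign against this peptide. Designed CDR sequences, proposed from the first random library and measured here. Their group label is 14L_En_HC (En: ensemble of fine-tuned language models; HC: hill climbing; a sequence that several methods proposed may carry one label only). The assay is AlphaSeq: two haploid yeast populations carry antibody and antigen on their surface. Binding brings cells together so that they mate, and sequencing counts the barcode pairs among the diploids. Each replicate has its own calibration line, from reference interactions of the BCL2 family. There are six technical replicates.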

Parent scFv Ab-14: VH joined to VL by the linker GGGGSGGGGSGGGGS. Changes lie in the light chain CDRs alone.
VH: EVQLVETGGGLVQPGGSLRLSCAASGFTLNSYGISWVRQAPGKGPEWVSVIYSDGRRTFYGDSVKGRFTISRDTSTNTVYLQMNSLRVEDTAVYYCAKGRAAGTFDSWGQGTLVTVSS
VL: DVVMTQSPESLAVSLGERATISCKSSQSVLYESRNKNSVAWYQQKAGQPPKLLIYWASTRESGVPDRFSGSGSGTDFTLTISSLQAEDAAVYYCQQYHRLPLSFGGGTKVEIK

Each variant is given by its three light chain CDRs, as the data file delimits them; those of the parent are KSSQSVLYESRNKNSVA, WASTRES, QQYHRLPLS. Affinities are written as log10 Kd with Kd in nM; a lower number is a better binder. "n.d." marks a missing value. The strain was present, yet no cells mated with the target were sequenced in that replicate, which points to weak or no binding. In the paper, a design with two or fewer of six values counts as a poor binder. Values of this round are not directly comparable with the first-round values of the same sequences. Empty control strains, which show no peptide, gave a signal in 4% of pairings with all light chain designs; the median was 2.64 and 95% of these signals were weaker than 1.59. No background was subtracted. For each scFv, signals with the empty controls are counted beside the result, with their mean in brackets. Of ten entries with the parent sequence, four were seen in most replicates (averages 0.34 to 2.37), three in one and three in none, so single entries are noisy.

CDR-L1,CDR-L2,CDR-L3,log10 Kd (nM) by replicate,empty controls
KLSMSYRQESENKNSIA,ELVTRMS,QQYHRLPLS,1.00 1.08 1.00 0.97 1.12 0.72,2 of 18 (2.83)
KLSQSVLFFGHAINNVA,EMETREN,QQYDRLPLS,0.36 0.39 0.08 0.27 0.30 0.50,0 of 18
KIMQSLNYESFNKSSVA,GQETRER,QSYHRLPLS,n.d. n.d. n.d. n.d. n.d. 3.21,0 of 18
MITAGLRGVGRNKNSVA,NAQTREQ,QHYHRLPLS,1.23 2.97 2.32 1.39 2.46 1.99,0 of 18
MLSDLVRMGSRNTNSVA,DNSTRGS,QQYDRLPLS,1.72 2.23 1.28 2.30 1.63 2.33,5 of 18 (2.98)
MISDLTYLGLRNVNSVA,DLEMRGN,QQYDRLPLS,n.d. 1.03 0.69 3.02 1.35 1.31,0 of 18
TLTQSVDMESHNKNSVA,DLSTRGS,QQYHRLPLS,0.18 -0.21 0.11 -0.27 0.07 0.40,1 of 18 (2.75)
KFGQSVLTGSYVRNSVA,QSSTREN,QQYDRLPLS,0.75 1.18 0.88 0.74 1.27 0.80,0 of 18
KLSYAVGGESRNKSSLA,DNSTRES,QQYHRLPLS,1.24 1.35 1.85 1.21 0.83 1.38,2 of 18 (2.39)
TISQSTYIESFNKNSVA,QTSTRME,QDYDRLPLS,n.d. 1.63 n.d. n.d. n.d. n.d.,1 of 18 (2.10)
MIAESVGYQSRNKNSVA,DNSTREN,QCYDRLPLS,2.58 1.80 1.93 2.62 2.39 1.48,3 of 18 (2.83)
KISGMYQKESKNKNSVA,EMVNREV,QQYDRLPLS,1.13 1.46 1.07 1.15 1.25 1.22,5 of 18 (2.51)
KIGQLTTYHSQIGNSIA,QTSTREE,QQYHRLPLS,1.32 3.19 1.71 1.15 1.74 3.08,1 of 18 (3.16)
KISQTFNVGTKNSNSLA,EMSTRGF,QDYHRLPLS,n.d. n.d. n.d. n.d. n.d. n.d.,0 of 18
KLYQVTGYEMLNKDSVA,QTSTRVN,QDYHRLPLS,0.58 1.00 0.84 1.02 0.44 0.81,0 of 18
KVSDMMGFLSRNRNSVA,DNSTRGS,QQYHRLPLS,0.35 0.62 0.69 0.93 0.68 0.91,1 of 18 (1.88)
KLGDMVHTLSRNKNSIA,DMRTRES,QQYNRLPLS,0.00 -0.09 0.02 -0.38 -0.16 -0.08,1 of 18 (2.74)
IISGVMLVESKHKNSVA,NAETREY,QHYDRLPLS,2.35 2.87 1.96 1.98 2.33 2.64,2 of 18 (2.71)
TISTSALYESTNKNNVA,ELSTRGS,QQYERLPLS,0.64 0.43 0.43 0.43 0.72 0.80,0 of 18
SLMQVGGYESNNKHSIA,DLRTRES,QQYHRLPLS,0.51 0.47 0.46 0.16 0.33 0.49,1 of 18 (4.66)
MLSDLVKMGYRNTNSVA,DNSTRGS,QQYDRLPLS,n.d. 2.35 n.d. 3.31 4.40 n.d.,2 of 18 (3.48)
MFSQLLMYGSRNYNSVA,QASTRES,QQYHRLPLI,1.31 0.79 1.88 1.20 0.67 1.80,1 of 18 (1.71)
KLRLSTHIESFNKNNVA,EMTTRES,QSYDRLPLS,1.48 1.56 1.52 1.80 1.17 0.78,3 of 18 (2.19)
IISQSVLGGYHNKNSVA,QTSERGQ,QQYDRLPLA,1.58 n.d. 1.96 2.19 n.d. n.d.,0 of 18
TISQSAQMESHAKNSVA,DLNVRGS,QQYDRLPLS,0.78 0.01 0.16 0.75 0.37 0.33,1 of 18 (2.52)
KISMTVTFESRNKNSVA,ENSTRES,QSYHRLPLS,n.d. 2.75 n.d. n.d. 3.24 3.05,0 of 18
TISQSFFMENQFKNSVA,QASTRES,QCYDRLPLS,1.18 1.07 1.50 0.98 1.79 0.98,1 of 18 (2.09)
KISQSILFMSGKNNAIA,QMEMREE,QQYDRLPLS,0.97 1.37 1.24 1.63 1.08 1.10,1 of 18 (2.27)
KLRVATMLESHNKNSIA,DLSTRGN,QQYHRLPLS,0.74 0.30 0.20 0.95 0.18 0.72,2 of 18 (2.23)
NLSISMLHESINKHSVA,EVRTREN,QQYDRLPLS,n.d. n.d. 2.00 3.05 n.d. n.d.,0 of 18
HISMMVGTKGYAKNSVA,NEETRYD,QQYHRLPLS,0.10 -0.06 0.14 -0.05 -0.08 0.44,2 of 18 (2.08)
MISDMGLHDSRMQNSVA,NNSTREA,QQYDRLPLS,n.d. 2.07 n.d. n.d. n.d. 2.08,2 of 18 (2.22)
SLMQVGGYESNNHNSIA,DLRTREQ,QQYHRLPLS,0.67 0.09 -0.01 0.16 0.21 0.19,1 of 18 (3.73)
KVGLVTNGISFSKNSVA,EQSTRED,QQYDRLPLS,0.11 0.46 -0.18 0.46 0.60 0.38,3 of 18 (2.23)
ALSQSMDMTSRNVNSVA,DLTTRCN,QQYHRLPLS,n.d. 1.16 0.01 0.35 0.69 1.30,0 of 18
KCSQNVGIMGRGKNNVA,EMTTREE,QQYDRLPLS,0.20 0.49 0.47 0.04 0.13 0.18,0 of 18
MISQLFMYGSRHYNSIA,QAETREK,QQYDRLPLE,1.48 1.44 2.07 1.98 1.91 1.62,1 of 18 (3.42)
SIYDATTMESRNKNPIA,DVSTRPS,QQYHRLPLS,0.39 0.14 0.32 0.55 0.41 0.54,0 of 18
TISQSTQQESHNKNSVA,DLNVRGS,QQYDRLPLS,0.32 0.35 0.32 0.65 0.53 0.52,2 of 18 (2.71)
KLSEVAHFESRKKNSVA,ENSTRES,QQYDHLPLS,1.22 1.97 1.56 1.70 1.79 1.57,1 of 18 (2.29)
KIGHGLTTEMRNRNSVA,QTETRVQ,QHYHRLPLS,2.02 1.82 1.42 1.37 1.73 0.93,0 of 18
MFSQSVMYGSFYRNSVA,QTSTREN,QQYDRLPLS,1.02 0.85 0.29 0.38 1.05 0.60,0 of 18
TIAQSMLYLSNLKNSIA,QAETRES,QQYHRLPIS,1.70 1.26 1.59 1.64 1.43 1.61,3 of 18 (2.28)
ILSQSVLMGSHLKNSVA,QAETRFS,QQYHRLPLS,0.81 0.24 0.42 0.53 0.71 0.72,2 of 18 (1.93)
TISGLIMMPSRNKNSVA,NTSTRYQ,QQYHRLPLS,n.d. n.d. n.d. n.d. n.d. n.d.,0 of 18
TISQMFLGESRNRQSVA,QASTRES,QSYDRLPLS,0.69 0.64 0.67 0.96 0.78 0.58,1 of 18 (2.98)

Values reported by Li et al. 2023, doi:10.1038/s41467-023-39022-2 (FLAb copy).